System: bulk polyclonal human IgG
Test: Cross-interaction chromatography (CIC)
Format: physicochemical
Excerpt: Cross-interaction chromatography (CIC) is a high throughput method for preliminary assessment of the stickiness of mAb candidates (Jacobs et al., Pharm Res., 27 (1): 65-71 (2010)). In this method, bulk polyclonal human IgG is chemically coupled to an NHS-activated chromatography resin.

Substance: Herceptin: member of the control panel of mAbs in CIC [reference compound]
- Rt-Test (IgG-derivatized column): 9.5
- K′ (higher K′ values may indicate lower solubility): 0.011
- Rt-Blank (non-derivatized column): 9.4
